# Legend:
# Sequences of proteins named here, by UniProt entry; tags and fusion partners are left off. A change or cut given only in a name is not applied to a line headed by its entry.
# UniProt P06493, whole entry: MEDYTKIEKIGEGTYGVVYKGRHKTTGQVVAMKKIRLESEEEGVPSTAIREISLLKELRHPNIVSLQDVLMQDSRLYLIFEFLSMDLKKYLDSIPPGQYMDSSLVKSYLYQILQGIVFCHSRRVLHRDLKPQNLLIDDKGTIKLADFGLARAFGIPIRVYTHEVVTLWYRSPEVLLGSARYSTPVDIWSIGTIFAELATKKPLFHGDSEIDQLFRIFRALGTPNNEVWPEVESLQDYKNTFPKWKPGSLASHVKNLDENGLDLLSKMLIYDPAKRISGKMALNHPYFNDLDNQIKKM
# UniProt Q00535, whole entry, species assumed: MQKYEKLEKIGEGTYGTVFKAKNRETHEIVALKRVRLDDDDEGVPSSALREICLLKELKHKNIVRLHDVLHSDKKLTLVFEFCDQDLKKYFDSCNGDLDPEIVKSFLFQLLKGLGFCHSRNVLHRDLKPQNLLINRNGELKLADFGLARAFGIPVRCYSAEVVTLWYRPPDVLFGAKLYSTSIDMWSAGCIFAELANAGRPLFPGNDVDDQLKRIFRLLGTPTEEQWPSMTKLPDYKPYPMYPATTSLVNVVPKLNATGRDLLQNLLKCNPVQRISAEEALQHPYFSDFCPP
# UniProt P11802: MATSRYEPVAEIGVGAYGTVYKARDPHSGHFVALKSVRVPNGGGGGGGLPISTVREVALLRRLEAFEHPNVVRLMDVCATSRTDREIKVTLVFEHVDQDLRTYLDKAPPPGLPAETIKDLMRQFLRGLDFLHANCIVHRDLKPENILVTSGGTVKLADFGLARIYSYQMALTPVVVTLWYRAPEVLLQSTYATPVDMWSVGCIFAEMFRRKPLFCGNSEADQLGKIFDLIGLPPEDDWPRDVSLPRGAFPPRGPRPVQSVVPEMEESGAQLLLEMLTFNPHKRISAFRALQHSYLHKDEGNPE
# UniProt P50613: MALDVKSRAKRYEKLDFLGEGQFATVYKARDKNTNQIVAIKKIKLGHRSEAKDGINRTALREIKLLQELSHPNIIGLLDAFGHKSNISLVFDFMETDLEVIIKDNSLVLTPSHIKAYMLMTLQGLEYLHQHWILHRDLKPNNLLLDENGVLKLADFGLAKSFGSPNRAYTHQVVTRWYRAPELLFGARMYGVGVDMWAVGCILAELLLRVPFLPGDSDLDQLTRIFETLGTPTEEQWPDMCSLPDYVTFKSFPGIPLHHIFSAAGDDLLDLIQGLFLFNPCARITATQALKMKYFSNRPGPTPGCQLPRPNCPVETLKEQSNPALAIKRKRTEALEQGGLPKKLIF
# UniProt P50750, whole entry: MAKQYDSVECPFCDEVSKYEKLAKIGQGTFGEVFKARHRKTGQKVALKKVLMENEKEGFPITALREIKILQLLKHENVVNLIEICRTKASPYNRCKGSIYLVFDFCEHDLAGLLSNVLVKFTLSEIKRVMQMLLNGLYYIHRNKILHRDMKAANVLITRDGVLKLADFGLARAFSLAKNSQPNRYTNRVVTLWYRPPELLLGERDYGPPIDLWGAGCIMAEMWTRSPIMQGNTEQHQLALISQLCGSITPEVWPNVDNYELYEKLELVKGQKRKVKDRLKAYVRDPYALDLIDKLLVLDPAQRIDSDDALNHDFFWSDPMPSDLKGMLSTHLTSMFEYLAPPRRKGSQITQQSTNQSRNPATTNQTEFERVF
# [1] = cited from earlier work
# CDK2/A = CDK2/A (Homo sapiens, UniProt P24941); details: read-out: CDK2 Inhibitory Activity IC50; Table 3
# Human CDK1/B = Human CDK1/B (Homo sapiens, UniProt P06493); details: read-out: CDK1 Inhibitory Activity IC50; Table 3
# CDK5 = CDK5 (Homo sapiens, UniProt Q00535); details: read-out: CDK5 Inhibitory Activity IC50; Table 3
# CDK4/D = CDK4/D (Homo sapiens, UniProt P11802); assay: biochemical; details: read-out: CDK4 Inhibition at 10 μM (%)
# CDK7/H = CDK7/H (Homo sapiens, UniProt P50613); assay: biochemical; details: read-out: CDK7 Inhibition at 10 μM (%)
# CDK9/T = CDK9/T (Homo sapiens, UniProt P50750); assay: biochemical; details: read-out: CDK9 Inhibition at 10 μM (%)
smiles,measurement,setting,value
COc1nc(N)nc2nc[nH]c12 [2-amino-6-methoxypurine],chemical stability,[1],relatively poor chemical stability
"NS(=O)(=O)c1ccc(Nc2nc(OCC3CCCCC3)c3cn[nH]c3n2)cc1 [Compound 91, 4-((4-(Cyclohexylmethoxy)-1H-pyrazolo[3,4-d]pyrimidin-6-yl)amino)benzenesulfonamide]",IC50,CDK2/A,0.018 ± 0.001 µM
same,IC50,Human CDK1/B,1.6 ± 0.2 µM
"Nc1nc(OCC2CCCCC2)c2nc[nH]c2n1 [Compound 1, 2-amino-6-cyclohexylmethoxypurine, reference compound]",IC50,CDK5,97 ± 3 µM
same,inhibition at 10 µM,CDK4/D,33%
same,inhibition at 10 µM,CDK7/H,44%
same,inhibition at 10 µM,CDK9/T,42%

# Reference: PMC6111440, “Cyclin-Dependent Kinase (CDK) Inhibitors: Structure–Activity Relationships and Insights into the CDK-2 Selectivity of 6-Substituted 2-Arylaminopurines” (Journal of Medicinal Chemistry, 2016)
